This note sets out measurements from article PMC5103180.

pKd: −log10 of the molar value.

What all share (assay): FP
Holding throughout (settings): domain or fragment

Assay [1] deals with ATS‐C fragment of PfEMP1 variant PF07_0050 (Plasmodium falciparum).
For assay [2], the target named is ATS‐C fragment of PfEMP1 variant PFL0020w (Plasmodium falciparum).
The target of a further assay is PF08_0141 ATS-C.

In the case of PFE1605w PHIST domain, the figures for the pKd (in assay [1]; in assay [2]; with PF08_0141 ATS-C) were 4.82, 4.60 and 5.44, respectively.

A word on the pKd: it is −log10 of the Kd, conventionally taken in molar units.
